# Experimental data reported in patent publication US9308215B2, “Avermectins and milbemycins as anti-mycobacterial agents” (priority 2013, dated 2016).
# Where two headings read alike, the source gives them in different places.
# Test system: Mycobacterium tuberculosis (H37Rv)
# Details: for Log10 cfu reduction (lungs): Acute (SCID)
Compound,"Log10 cfu reduction (lungs) (1 mg/kg bw PO, 5% DMSO) [Log10 cfu]","Log10 cfu reduction (lungs) (10 mg/kg bw PO, 5% DMSO) [Log10 cfu]","activity in vivo in acute TB model (10 mg/kg and 50 mg/kg dose, oral)","Log10 cfu reduction (lungs) (10 mg/kg bw PO, sesame oil) [Log10 cfu]","Log10 cfu reduction (lungs) (50 mg/kg bw PO, sesame oil) [Log10 cfu]","Log10 cfu reduction (lungs) (100 mg/kg bw PO, sesame oil) [Log10 cfu]","Log10 cfu reduction (lungs) (200 mg/kg bw PO, sesame oil) [Log10 cfu]"
CO[C@H]1/C=C/O[C@@]2(C)Oc3c(C)c(O)c4c(O)c(c(/C=N/N5CCN(C)CC5)c(O)c4c3C2=O)NC(=O)/C(C)=C\C=C\[C@H](C)[C@H](O)[C@@H](C)[C@@H](O)[C@@H](C)[C@H](OC(C)=O)[C@@H]1C [Rifampin],−0.08,−1.17,–,–,–,–,–
CO[C@H]1C[C@H](O[C@@H]2/C(C)=C/C[C@@H]3C[C@@H](C[C@]4(CC[C@H](C)[C@@H](C5CCCCC5)O4)O3)OC(=O)[C@@H]3C=C(C)/C(=N/O)[C@H]4OC/C(=C\C=C\[C@@H]2C)[C@]43O)O[C@@H](C)[C@@H]1O [Selamectin],–,–,showed activity,−0.42,−0.62,−0.23,−0.23
